Assay outcomes: PubChem, Broad Institute
Shown are actives, neighbours in structure and some others; about 1.7% of the full set was active somewhere.
dFosB act-1: activators of delta FosB homodimer, primary screen, biochemical, fluorescence polarization, TAMRA-CDK5 oligo, single point; Protein FosB (Mus musculus), P13346; purified delta FosB; percent of positive-control signal above neutral wells; activation, % at 25 µM; actives 0.99% (n = 340,000);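 active means mean activation above about 17%, with every replicate also reaching it, limit read from the data, passing the limit was not always enough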
CAL PDZ FP-1: untagged CAL PDZ binding inhibitors, primary screen, biochemical, fluorescence polarization, HTS; inhibition, % at 24.9 µM; actives 0.92% (n = 300,000); AID 602252, 2012; Golgi-associated PDZ and coiled-coil motif-containing protein (Homo sapiens), Q9HD26; purified CAL PDZ, TMR-peptide fluorescence polarization, 1 h;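 active means mean inhibition of at least 30% with at least half of replicates also reaching 30%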;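 further: 0% = DMSO neutral control and 100% = excess unlabeled competitor peptide PRC23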
Yeast UUG start: modulators of yeast start codon fidelity, primary screen, whole organism, S. cerevisiae, single point, plate reader | AID 602363, 2012 | actives 0.13% (n = 350,000) | activity score, % at 18.7 µM | S. cerevisiae UUG-firefly luciferase reporter, luminescence/redox ratio;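 active means replicate mean at a twofold rise or more, about +100% in these data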;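 further: firefly luciferase made from a UUG start codon reports start codon fidelity; reporter light over untreated wells divided by growth signal over untreated wells; some hits fall short of that in this replicate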
CAL PDZ FP-2: CAL PDZ peptide-binding inhibitors, primary screen, biochemical, fluorescence polarization, Cer-tagged CAL PDZ, HTS; purified CAL PDZ, TMR-peptide fluorescence polarization, 1 h; inhibition, % at 20 µM; actives 0.02% (n = 330,000);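 active means highest replicate inhibition of at least 40%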;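 further: plate controls were DMSO neutral control wells for no effect and unlabeled competitor peptide control wells for full effect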
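Material – purified CerCALP PDZ construct · Detection – FP readout, S and P plane fluorescence · Measure – percent inhibition from loss of millipolarization · Controls – unlabelled peptide for full inhibition, DMSO wells as neutral · Probe or stimulus – TMR-labelled reporter peptide T*-PRC34 bound in PDZ groove · Times – 1 h at RT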
CDK5 p35 inh: inhibitors of human CDK5/p35 kinase, primary screen, biochemical, single concentration | inhibition, % at 10 µM | Recombinant CDK5/p35, ADP-Glo luminescence, 60 min | Cyclin-dependent kinase 5 (Homo sapiens) + Cyclin-dependent kinase 5 activator 1 (Homo … | AID 488839, 2010 | actives 0.01% (n = 330,000);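 active means highest replicate inhibition of at least 50% and at least 75% of replicates reaching 50%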;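 further: plate controls were DMSO neutral control for no effect and GW8510 at 10 µM for full effect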
Dyrk1A ADPGlo: rat Dyrk1A kinase inhibitors, primary screen, biochemical, single point, plate reader | Dual specificity tyrosine-phosphorylation-regulated kinase 1A (Rattus norvegicus), Q63470 | ADP-Glo luminescence, NFATc1 peptide | inhibition, % at 12.5 µM | actives 0.43% (n = 310,000) | AID 504441, 2011; in the data active means inhibition above about 50%;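 further: plate controls were vehicle with enzyme for no effect and no enzyme for full effect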
dFosB act-2: activators of mouse delta FosB DNA binding, confirmation, biochemical, fluorescence polarization, TAMRA-CDK5 oligo, cherry-picked samples | shares compounds with dFosB act-1 | purified delta FosB; normalised: neutral wells 0, positive control 100 | activation, % at 24.9 µM | 2,400 tested, under 10 active | AID 588690, 2011;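 active means highest replicate activation at or above 34% and every replicate reaching that threshold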;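 further: higher polarization means more probe DNA bound by delta FosB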
Active calls of the source: *; x = no result given.

(1) CCN(C(=O)COC(=O)/C=C/c1ccc(OC)c(OC)c1)c1c(N)n(Cc2ccccc2)c(=O)[nH]c1=O
(2) COc1ccc(/C=C/C(=O)OCC(=O)N(C)c2c(N)n(Cc3ccccc3)c(=O)[nH]c2=O)cc1OC
(3) CCN(C(=O)COC(=O)CNC(=O)c1ccc2ccccc2c1)c1c(N)n(Cc2ccccc2)c(=O)[nH]c1=O
(4) CCN(C(=O)COC(=O)c1ccc2ccccc2c1)c1c(N)n(Cc2ccccc2)c(=O)[nH]c1=O
(5) COCCN(C(=O)COC(=O)/C=C/c1ccc(C(F)(F)F)cc1)c1c(N)n(Cc2ccccc2)c(=O)[nH]c1=O
(6) COCCN(C(=O)COC(=O)/C=C/c1ccc(SC)cc1)c1c(N)n(Cc2ccccc2)c(=O)[nH]c1=O
(7) COc1ccc(C)cc1NC(=O)CNC(=O)Cn1ccc2ccccc2c1=O
(8) COc1ccc(OC)c(NC(=O)CCNC(=O)Cn2ccc3ccccc3c2=O)c1
Compound | 1 | 2 | 3 | 4 | 5 | 6 | 7 | 8
dFosB act-1 | 19.9* | -0.2 | -5.2 | 38.4* | 6.1 | 20.9* | 47.1* | 3.9
CAL PDZ FP-1 | 0.8 | -2.9 | -1.4 | -2.6 | 0.4 | 1.0 | -3.1 | -3.6
Yeast UUG start | -15.9 | 3.6 | -12.5 | -17.0 | -6.9 | -7.5 | -4.5 | -6.5
CAL PDZ FP-2 | -0.4 | -3.0 | -1.3 | -0.6 | -0.1 | 0.0 | 0.6 | 0.3
CDK5 p35 inh | 1.0 | 0.8 | 1.0 | -1.1 | -1.1 | 1.0 | 1.1 | -6.4
Dyrk1A ADPGlo | x | 3.0 | 5.2 | x | -2.1 | -2.3 | 4.0 | -0.5
dFosB act-2 | -1.9 | x | x | 0.8 | x | 0.8 | -1.2 | x

Results in sequence from above:
Yeast UUG start for nos. 1–8, in order: -15.9, 3.6, -12.5, -17.0, -6.9, -7.5, -4.5, -6.5
CDK5 p35 inh for nos. 1–8, in order: 1.0, 0.8, 1.0, -1.1, -1.1, 1.0, 1.1, -6.4

2 records picked at random from the list so far:
(7) COc1ccc(C)cc1NC(=O)CNC(=O)Cn1ccc2ccccc2c1=O
(4) CCN(C(=O)COC(=O)c1ccc2ccccc2c1)c1c(N)n(Cc2ccccc2)c(=O)[nH]c1=O
Compound | 7 | 4
dFosB act-1 | 47.1* | 38.4*
CAL PDZ FP-1 | -3.1 | -2.6
Yeast UUG start | -4.5 | -17.0
CAL PDZ FP-2 | 0.6 | -0.6
CDK5 p35 inh | 1.1 | -1.1
Dyrk1A ADPGlo | 4.0 | x
dFosB act-2 | -1.2 | 0.8

Following part:
(9) COc1ccc([N+](=O)[O-])cc1NC(=O)CCNC(=O)Cn1ccc2ccccc2c1=O
(10) CS(=O)(=O)Nc1ccc2c(c1)[C@@H]1C[C@H](CC(=O)NCc3ccc(-c4ccccc4)cc3)O[C@@H](CO)[C@@H]1O2
(11) C[C@H]1CN([C@@H](C)CO)C(=O)c2cc(-c3ccccc3F)cnc2O[C@H]1CN(C)C(=O)C1CCC1
(12) O=C(CCn1c(=O)c2cccn2c2cccnc21)NCc1cccc(Cl)c1
(13) C[C@@H]1CN([C@H](C)CO)C(=O)c2cc(NC(=O)CCC(F)(F)F)ccc2O[C@@H](C)CCCCO[C@@H]1CN(C)C(=O)CCC(F)(F)F
(14) CCc1nonc1NC(=O)c1oc2ccc(C)cc2c1C
(15) Cc1cc2oc(C(=O)Nc3nonc3C)c(C)c2cc1Cl
(16) Cc1nonc1NC(=O)c1oc2ccc(F)cc2c1C
Compound | 9 | 10 | 11 | 12 | 13 | 14 | 15 | 16
dFosB act-1 | 19.2* | x | x | 21.2* | x | 15.9 | 46.2* | 28.9*
CAL PDZ FP-1 | 5.8 | x | x | x | x | x | -4.0 | -1.9
Yeast UUG start | x | -2.4 | -8.9 | -20.4 | 12.3 | -16.7 | -3.4 | -11.7
CAL PDZ FP-2 | 0.6 | x | x | 0.7 | x | -0.9 | -2.6 | -1.6
CDK5 p35 inh | 0.4 | x | x | 0.8 | x | 0.6 | 2.4 | 0.1
Dyrk1A ADPGlo | 1.7 | x | x | -3.5 | x | 4.0 | -8.0 | -1.7
dFosB act-2 | -4.6 | x | x | -0.3 | x | x | 2.5 | 1.8

(17) C[C@H](CO)N1C[C@H](C)[C@H](CN(C)C(=O)C2CCC2)Oc2cc(C#Cc3ccncc3)ccc2S1(=O)=O
(18) O=C(C[C@H]1C[C@H]2c3cc(NC(=O)Cc4ccncc4)ccc3O[C@H]2[C@@H](CO)O1)NCc1ccncc1
(19) COc1ccc(N2CCc3c(C)nc4c(OC)cc(OC)cc4c32)cc1
(20) COc1ccc(N2CCc3c(C)nc4c(OC)cc(OC)cc4c32)c(OC)c1
(21) N#C/C(=C/c1ccc(F)cc1)c1nnc(NC(=O)c2ccccc2)s1
(22) CN(C)CCCN(C(=O)c1cc(-c2cccs2)nc2ccccc12)c1nc2ccc(F)cc2s1
Compound | 17 | 18 | 19 | 20 | 21 | 22
dFosB act-1 | x | x | 38.3* | 1.9 | 21.3* | 28.1*
CAL PDZ FP-1 | x | x | -0.9 | -2.4 | -1.5 | -2.6
Yeast UUG start | -1.6 | -0.4 | x | -7.1 | -9.6 | 4.0
CAL PDZ FP-2 | x | x | -0.7 | -1.5 | -1.0 | -9.7
CDK5 p35 inh | x | x | 1.1 | 0.5 | 0.4 | 1.4
Dyrk1A ADPGlo | x | x | x | 0.5 | 14.9 | 19.7
dFosB act-2 | x | x | 1.0 | x | -6.2 | 4.9
